# Laboratory results taken from paper PMC3744640 (Bioorganic & medicinal chemistry letters, 2013).
# Test system: 10 recombinant kinases
# Settings: 10 μM concentration
smiles,measurement,value
"O=C(NC12CC3CC(CC(C3)C1)C2)N[C@H]1CC[C@H](Oc2ccc(C(=O)O)cc2)CC1 [compound 11, trans-4-[4-(3-adamantan-1-yl-ureido)-cyclohexyloxy]-benzoic acid]",multi-kinase inhibition (in words),no significant multi-kinase inhibition
